Antibody variant affinities, Ab-95 light chain, assay 2

Source: Engelhart et al. 2022 (doi:10.1038/s41597-022-01779-4), MIT Lincoln Laboratory and A-Alpha Bio; data file from the FLAb repository.

Binding partner: SARS-CoV-2 spike HR2 peptide, sequence PDVDLGDISGINAS.

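The parent was found by panning a naive human phage display library on the peptide. AAYL52 was designed without a model: most single CDR substitutions and a random sample of double and triple ones. The scFvs were displayed on barcoded MATa yeast, the peptide on MATalpha yeast. The frequency of each diploid, read from paired DNA barcodes, reflects how well the two displayed proteins bind. Read counts were normalised to the haploid input and turned into Kd by a linear fit to BCL2-family pairs of known affinity, for each replicate. Mating was done three times.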

Ab-95 is the parent antibody, in scFv form: VH, then three GGGGS repeats, then VL. The heavy chain is unchanged in all variants.
VH: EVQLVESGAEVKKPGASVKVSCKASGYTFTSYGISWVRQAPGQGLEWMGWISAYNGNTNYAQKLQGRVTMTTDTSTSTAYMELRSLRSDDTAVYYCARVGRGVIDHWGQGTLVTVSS
VL: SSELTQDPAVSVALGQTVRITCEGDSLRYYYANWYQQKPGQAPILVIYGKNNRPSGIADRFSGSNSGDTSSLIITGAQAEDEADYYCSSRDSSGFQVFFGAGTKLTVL

The parent's light chain CDRs are EGDSLRYYYAN, GKNNRPS, SSRDSSGFQVF; each variant's own CDRs replace them letter for letter.
Values are log10 of the apparent Kd in nM; lower means stronger binding.
Replicates are averaged; those with no signal do not enter the mean.
"nd" marks a missing value. The strain was present, yet no cells mated with the target were sequenced in any replicate, which points to weak or no binding.
Nonspecific signal, from three strains lacking the peptide, appeared in 28% of pairings of library AAYL52, centred on 3.91 (5% of these signals below 2.90); values are not corrected for it. Also given: how often the same scFv was detected with the empty control strains.

| mean log10 Kd (nM) | seen in | signal with controls | CDR-L1 | CDR-L2 | CDR-L3 |
|---|---|---|---|---|---|
| 3.93 | 3 of 3 | 8 of 9 | EGDSLRYDYAN | GKNNRPS | SSRDASGFPVF |
| 3.47 | 2 of 3 | 4 of 9 | EGDSLRYIYAN | GHNNRPS | SSRDSYGFQVF |
| nd | 0 of 3 | 2 of 9 | EGDSLRYYYAN | GKLMYPS | SSRDSSGFQVF |
| 3.10 | 2 of 3 | 5 of 9 | EGDSTRYYYAN | GSNNRPS | SSRDSSGFQVF |
| 4.28 | 2 of 3 | 3 of 9 | EGDSLRYYYAN | GKNNRPS | SSRDSAGFQEF |
| 4.06 | 1 of 3 | 4 of 9 | EGDSLRYYYAP | GKKNRPS | SSRDSSGFVVF |
| 4.39 | 1 of 3 | 1 of 9 | EGDSARYYYAN | GKNNRPS | SSRDSSIFQLF |
| 2.68 | 3 of 3 | 6 of 9 | EGESLRYYYAN | GKNNRIS | SSRDSSGFQVA |
| 3.10 | 2 of 3 | 3 of 9 | EWDSLRYYYAN | GKNNRPS | SSRDSSGFCVF |
| 3.06 | 3 of 3 | 2 of 9 | EGDSLRHYRAN | GKNNRPS | QSRDSSGFQVF |
| 2.85 | 3 of 3 | 3 of 9 | EGDSLRYYYAN | GQNNRPS | SSRDSYGEQVF |
| 2.58 | 3 of 3 | 5 of 9 | AGPSLRYYYAN | GKNNRPS | SSRDSAGFQVF |
| 3.39 | 3 of 3 | 2 of 9 | EGDSLRWYYAN | GKNNRDS | SSRDSSSFQVF |
| 2.82 | 3 of 3 | 2 of 9 | EGDSLRYYRAN | GKNNRPS | SSRDSSGFRGF |
| nd | 0 of 3 | 1 of 9 | EGDSLRYWYAN | GKNNRPS | SSRDKSKFQVF |
| 4.12 | 3 of 3 | 4 of 9 | EGDSLRYYYWN | GKNNRPS | SSRDSCGFQSF |
| nd | 0 of 3 | 0 of 9 | EQDSLRYYYAN | GKNNRPS | SSRDNSGFQQF |
| 4.70 | 1 of 3 | 2 of 9 | EGDSLRYYYAI | GKNNRPS | SSRATSGFQVF |
| 3.02 | 3 of 3 | 2 of 9 | EGDSLRYRYAN | GKNNVPS | SSHDSSGFQVF |
| 4.30 | 1 of 3 | 3 of 9 | EGRSLRYYVAN | GKNNRPS | SSRDSSNFQVF |
| 4.98 | 1 of 3 | 3 of 9 | EHDSVRYYYAN | WKNNRPS | SSRDSSGFQVF |
| 3.37 | 3 of 3 | 2 of 9 | EGDSLRYYYAN | GVNNRPS | SSRDSSYFQVR |
| nd | 0 of 3 | 1 of 9 | FGDSLRYYYAN | CKNNRPS | SSRDSNGFQVF |
| nd | 0 of 3 | 4 of 9 | EGDSLRYYYAN | MKNNRES | SSRMSSGFQVF |
| 2.88 | 1 of 3 | 0 of 9 | EGDSLRLYYAN | GQNNRES | SSRDSSGFQVF |
| nd | 0 of 3 | 0 of 9 | EGDSLRYYYAN | GVNNRPS | SSRDSSWFQFF |
| 1.67 | 3 of 3 | 2 of 9 | EGDSLRYYPAN | GKNNRPS | SSNDSSGFQVF |
| 3.71 | 1 of 3 | 3 of 9 | WGDSLRYYYCN | GKINRPS | SSRDSSGFQVF |
| 2.55 | 3 of 3 | 5 of 9 | EGDSLRYYYAV | GKNNRPD | SSRDSSGFQVF |
| 3.97 | 3 of 3 | 6 of 9 | EGDSLRYYYAN | GGNNRPS | QSRSSSGFQVF |
| 1.74 | 3 of 3 | 1 of 9 | VGDSLRYEYAN | GKNNRPS | SSRDSSGFQVK |
| 4.59 | 3 of 3 | 2 of 9 | EGDSLRYYYAA | GKNNNPS | SSRDSSGFQYF |
| 2.64 | 3 of 3 | 2 of 9 | EGDSLRYLYAN | GKNNRPS | SSRDSAGFQHF |
| 2.94 | 3 of 3 | 1 of 9 | EGDSLRYYYAN | GKNNAPS | SSRDMSGFQVF |
| 3.80 | 3 of 3 | 2 of 9 | EGDSLRYYYAN | GKNNTAS | SSRDSSGFQVC |
| nd | 0 of 3 | 3 of 9 | EGDSWRYYYHN | GKNTRPS | SSRDSSGFQVF |
| 3.52 | 2 of 3 | 5 of 9 | ESDSLRVYYAN | GKNNRPS | SSRDSSGFAVF |
| 2.65 | 3 of 3 | 3 of 9 | EGDSLRYYYAN | GKNNRPS | SSRKSHGFQVF |
| 3.85 | 3 of 3 | 5 of 9 | GGDSLRYYYAN | GKHNRPS | SSRDSGGFQVF |
| 2.91 | 3 of 3 | 1 of 9 | EGDSLRYYYAN | GSHNRPS | SSRDSSGFQVF |
| 3.32 | 3 of 3 | 5 of 9 | NGDSLRYYYAN | GCNNRPS | RSRDSSGFQVF |
| 3.74 | 1 of 3 | 3 of 9 | EGDSLRYYYAN | GMNCRPS | SSLDSSGFQVF |
| 4.04 | 1 of 3 | 5 of 9 | EGDSPRYYYAN | GKNNFPS | SSRDSSGAQVF |
| 3.29 | 1 of 3 | 1 of 9 | EGDSLRYYYAD | GLNNRPS | SSRDSSGIQVF |
| 3.28 | 3 of 3 | 2 of 9 | KGDSLRYYYAN | QKNNRYS | SSRDSSGFQVF |
| 2.15 | 3 of 3 | 6 of 9 | ESDSLRYTYAN | GKNNRPS | SSRDSSGQQVF |
| 2.84 | 3 of 3 | 5 of 9 | ELDSLRYMYAN | GKNDRPS | SSRDSSGFQVF |
| 4.21 | 2 of 3 | 2 of 9 | ELDSLRYYYAN | GKNNRPS | SSRDSYGFQSF |
| nd | 0 of 3 | 1 of 9 | EGDSLRYYYAN | GKNRRPL | SSQDSSGFQVF |
| 2.23 | 3 of 3 | 5 of 9 | EGDSLRYYTAN | GKNNRPS | SYRDSSGFQVE |
| 3.79 | 3 of 3 | 3 of 9 | EGNSLRYYYAN | GCNNRPS | SFRDSSGFQVF |
| nd | 0 of 3 | 1 of 9 | EEDSLRYYYAW | GKNNRPS | SSRDSSGFQVF |
| 2.49 | 3 of 3 | 3 of 9 | EGDSLRYRYAN | GKNNRPC | SSRDSSGTQVF |
| 2.45 | 3 of 3 | 3 of 9 | EGDSLRDYYAN | GKNNRQS | SSRDSSGFQVK |
| 3.91 | 2 of 3 | 2 of 9 | EGDSLHYYIAN | GKNNTPS | SSRDSSGFQVF |
| 5.52 | 1 of 3 | 3 of 9 | EEDSLRYLYAN | GQNNRPS | SSRDSSGFQVF |
| 5.36 | 1 of 3 | 0 of 9 | EGDVLRYYYAN | GKNSRPS | SSQDSSGFQVF |
| 3.95 | 1 of 3 | 2 of 9 | EGDSLRTYIYN | GKNNRPS | SSRDSSGFQVF |
| nd | 0 of 3 | 2 of 9 | EGDSLRSYYAN | FKNNRAS | SSRDSSGFQVF |

Extract of 7 entries:

| CDR-L1 | CDR-L2 | CDR-L3 | mean log10 Kd (nM) | seen in | signal with controls |
|---|---|---|---|---|---|
| EGDSLRYYYAN | GVNNRPS | SSRDSSWFQFF | nd | 0 of 3 | 0 of 9 |
| EGDVLRYYYAN | GKNSRPS | SSQDSSGFQVF | 5.36 | 1 of 3 | 0 of 9 |
| EGRSLRYYVAN | GKNNRPS | SSRDSSNFQVF | 4.30 | 1 of 3 | 3 of 9 |
| EGDSLRDYYAN | GKNNRQS | SSRDSSGFQVK | 2.45 | 3 of 3 | 3 of 9 |
| EGDSPRYYYAN | GKNNFPS | SSRDSSGAQVF | 4.04 | 1 of 3 | 5 of 9 |
| FGDSLRYYYAN | CKNNRPS | SSRDSNGFQVF | nd | 0 of 3 | 1 of 9 |
| EGDSLRYYYAN | GKNNRPS | SSRDSAGFQEF | 4.28 | 2 of 3 | 3 of 9 |